Article PMC7255614

Protein sequences, listed by entry. Tags and fused reporters are not part of them. Residues count along the entry.
UniProt P02751, 32-2477: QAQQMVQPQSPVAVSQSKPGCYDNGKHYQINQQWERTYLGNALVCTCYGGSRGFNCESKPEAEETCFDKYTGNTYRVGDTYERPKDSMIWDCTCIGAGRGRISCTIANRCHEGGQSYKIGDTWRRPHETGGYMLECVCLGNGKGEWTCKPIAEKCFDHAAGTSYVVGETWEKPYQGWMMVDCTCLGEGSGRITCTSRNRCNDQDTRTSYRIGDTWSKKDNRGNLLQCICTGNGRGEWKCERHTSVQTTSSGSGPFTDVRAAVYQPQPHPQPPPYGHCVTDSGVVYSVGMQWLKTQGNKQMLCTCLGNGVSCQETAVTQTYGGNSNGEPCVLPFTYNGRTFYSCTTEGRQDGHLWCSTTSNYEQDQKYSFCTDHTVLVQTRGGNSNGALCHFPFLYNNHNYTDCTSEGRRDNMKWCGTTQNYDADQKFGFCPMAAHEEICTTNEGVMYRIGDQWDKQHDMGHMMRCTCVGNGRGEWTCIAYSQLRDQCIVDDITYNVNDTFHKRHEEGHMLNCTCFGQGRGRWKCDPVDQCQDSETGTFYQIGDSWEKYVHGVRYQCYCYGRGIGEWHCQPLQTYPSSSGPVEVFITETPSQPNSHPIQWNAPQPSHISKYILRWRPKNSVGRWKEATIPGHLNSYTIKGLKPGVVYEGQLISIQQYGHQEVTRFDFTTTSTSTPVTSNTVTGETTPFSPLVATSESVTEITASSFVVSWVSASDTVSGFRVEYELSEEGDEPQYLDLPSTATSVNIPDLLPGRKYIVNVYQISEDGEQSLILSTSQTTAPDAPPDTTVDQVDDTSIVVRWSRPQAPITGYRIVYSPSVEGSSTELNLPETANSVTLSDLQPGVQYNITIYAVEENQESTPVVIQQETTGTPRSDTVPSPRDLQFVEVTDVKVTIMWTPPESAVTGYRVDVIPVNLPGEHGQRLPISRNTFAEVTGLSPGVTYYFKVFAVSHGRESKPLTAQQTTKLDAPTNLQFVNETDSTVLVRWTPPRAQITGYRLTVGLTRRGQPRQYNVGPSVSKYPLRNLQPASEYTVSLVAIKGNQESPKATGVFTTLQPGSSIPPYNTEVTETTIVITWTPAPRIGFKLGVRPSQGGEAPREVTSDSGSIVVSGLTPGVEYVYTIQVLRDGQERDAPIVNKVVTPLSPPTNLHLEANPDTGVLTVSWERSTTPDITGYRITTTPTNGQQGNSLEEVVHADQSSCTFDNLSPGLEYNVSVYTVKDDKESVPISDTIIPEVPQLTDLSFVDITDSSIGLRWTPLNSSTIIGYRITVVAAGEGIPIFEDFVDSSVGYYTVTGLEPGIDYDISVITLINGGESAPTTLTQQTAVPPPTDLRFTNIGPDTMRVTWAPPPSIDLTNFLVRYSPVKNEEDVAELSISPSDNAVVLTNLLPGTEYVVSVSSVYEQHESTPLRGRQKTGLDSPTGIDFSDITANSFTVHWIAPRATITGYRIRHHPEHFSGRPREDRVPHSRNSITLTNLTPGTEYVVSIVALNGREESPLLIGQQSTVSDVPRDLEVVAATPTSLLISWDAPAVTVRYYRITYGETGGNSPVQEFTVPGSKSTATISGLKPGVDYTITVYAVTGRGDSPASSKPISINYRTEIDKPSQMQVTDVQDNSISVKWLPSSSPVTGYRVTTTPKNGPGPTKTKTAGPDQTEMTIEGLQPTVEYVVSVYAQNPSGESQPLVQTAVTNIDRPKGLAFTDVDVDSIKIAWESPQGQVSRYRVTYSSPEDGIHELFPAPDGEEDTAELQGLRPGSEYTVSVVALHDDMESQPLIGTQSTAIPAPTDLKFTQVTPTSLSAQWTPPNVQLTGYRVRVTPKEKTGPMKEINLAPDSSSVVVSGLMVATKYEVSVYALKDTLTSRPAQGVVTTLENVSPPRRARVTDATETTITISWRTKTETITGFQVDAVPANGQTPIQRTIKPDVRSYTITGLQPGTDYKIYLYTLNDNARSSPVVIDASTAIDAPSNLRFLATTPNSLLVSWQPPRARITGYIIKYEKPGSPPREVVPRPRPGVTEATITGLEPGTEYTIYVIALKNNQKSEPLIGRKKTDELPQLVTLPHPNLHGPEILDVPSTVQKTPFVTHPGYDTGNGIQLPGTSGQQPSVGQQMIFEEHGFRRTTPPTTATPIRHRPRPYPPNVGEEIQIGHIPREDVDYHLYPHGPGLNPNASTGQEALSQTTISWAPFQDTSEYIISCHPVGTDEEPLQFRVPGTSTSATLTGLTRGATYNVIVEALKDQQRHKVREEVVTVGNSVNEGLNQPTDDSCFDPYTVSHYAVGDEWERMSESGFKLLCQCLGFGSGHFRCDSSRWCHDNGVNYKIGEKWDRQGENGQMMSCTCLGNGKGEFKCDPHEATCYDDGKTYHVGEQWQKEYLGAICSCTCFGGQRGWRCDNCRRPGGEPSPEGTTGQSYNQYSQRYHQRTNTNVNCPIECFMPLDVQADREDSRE

Tests used:
fibronectin [1] = molecular target: fibronectin (UniProt P02751); experiment: ELISA; wells coated with 10 μg/ml purified fibronectin in 0.05 M Na2CO3 pH 9.0; 0.03125-2 μM GST or GST-tagged OspC variants, 1 hr at ambient temperature; goat anti-GST and HRP-conjugated anti-goat IgG; estimated KD from a fit of OD405
fibronectin [2] = molecular target: fibronectin (UniProt P02751); experiment: SPR; Biacore 3000; fibronectin on a CM5 chip; 0-500 nM untagged OspC variants injected at 10 μl/min, 25°C; 1:1 Langmuir model; KD from the average koff divided by kon of each run

GST-OspCPBr (natural protein; other documents disagree on this pair)
Kd (fibronectin [1]): 900 nM

OspCPBr, untagged (natural protein; other documents disagree on this pair)
Kd (fibronectin [2]): 710 nM | koff (fibronectin [2]): 0.13 s⁻¹ | kon (fibronectin [2]): 192000 M⁻¹ s⁻¹

OspC_(N40-D10/E9), untagged (natural protein; other documents disagree on this pair)
Kd (fibronectin [2]): 300 nM | koff (fibronectin [2]): 0.13 s⁻¹ | kon (fibronectin [2]): 451000 M⁻¹ s⁻¹
